Drawing on US20100240768A1, “NOVEL NUTRACEUTICALCOMPOSITIONS CONTAINING THYMOL AND/OR P-CYMENE OR PLANT EXTRACTS FOR COGNITION” (priority 2007, published 2010), this text covers IC50 for 1 molecule.

Sequences of proteins named here, by UniProt entry; tags and fusion partners are left off. Residues count along the entry.
UniProt P48067, 1-652 isoform 3: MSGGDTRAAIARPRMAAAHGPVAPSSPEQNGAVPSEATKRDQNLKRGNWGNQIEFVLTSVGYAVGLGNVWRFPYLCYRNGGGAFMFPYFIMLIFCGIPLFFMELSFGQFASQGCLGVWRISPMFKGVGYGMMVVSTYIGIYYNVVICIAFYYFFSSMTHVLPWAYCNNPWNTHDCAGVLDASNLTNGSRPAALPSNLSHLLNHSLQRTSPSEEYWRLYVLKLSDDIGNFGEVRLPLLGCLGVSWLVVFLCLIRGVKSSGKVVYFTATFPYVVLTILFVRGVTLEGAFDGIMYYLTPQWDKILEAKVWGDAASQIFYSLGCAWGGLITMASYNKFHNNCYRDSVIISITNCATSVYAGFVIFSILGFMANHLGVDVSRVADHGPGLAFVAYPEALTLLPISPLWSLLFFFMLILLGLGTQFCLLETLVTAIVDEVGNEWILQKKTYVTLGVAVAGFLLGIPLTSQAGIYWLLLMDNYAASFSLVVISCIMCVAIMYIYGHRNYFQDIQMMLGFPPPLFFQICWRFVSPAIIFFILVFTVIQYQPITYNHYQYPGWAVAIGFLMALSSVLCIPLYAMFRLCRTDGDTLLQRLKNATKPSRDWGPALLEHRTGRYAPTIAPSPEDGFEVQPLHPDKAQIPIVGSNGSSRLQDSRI

Molecules are shown by their SMILES.

The experiment deals with human glycine transporter 1b (GlyT1) (Homo sapiens, UniProt P48067). The experiment in a line: Inhibition of glycine transporter 1 in a cellular assay ([3H]glycine uptake into CHO cells). The experiment is classed as cell-based. The settings on record: read-out: IC50 (FIG. 1, GlyT1 inhibition assay); dose-response curve, internalization of radioactive glycine into the cells.

Turning to `CN(CC[C@@H](Oc1ccc(C(F)(F)F)cc1)c1ccccc1)CC(=O)O`, the IC50 was 20 nM.

Usually IC50 stands for the concentration needed to halve the response being measured.
